Experiments:
GLP-1 receptor = GLP-1 receptor (UniProt P43220); experiment: cell-based or functional assay
glucagon receptor = glucagon receptor (UniProt P47871); experiment: cell-based or functional assay

By UniProt entry, the sequences of proteins in these tests, tags left out. Residues count along the entry.
UniProt P43220, 24-463 limits assumed: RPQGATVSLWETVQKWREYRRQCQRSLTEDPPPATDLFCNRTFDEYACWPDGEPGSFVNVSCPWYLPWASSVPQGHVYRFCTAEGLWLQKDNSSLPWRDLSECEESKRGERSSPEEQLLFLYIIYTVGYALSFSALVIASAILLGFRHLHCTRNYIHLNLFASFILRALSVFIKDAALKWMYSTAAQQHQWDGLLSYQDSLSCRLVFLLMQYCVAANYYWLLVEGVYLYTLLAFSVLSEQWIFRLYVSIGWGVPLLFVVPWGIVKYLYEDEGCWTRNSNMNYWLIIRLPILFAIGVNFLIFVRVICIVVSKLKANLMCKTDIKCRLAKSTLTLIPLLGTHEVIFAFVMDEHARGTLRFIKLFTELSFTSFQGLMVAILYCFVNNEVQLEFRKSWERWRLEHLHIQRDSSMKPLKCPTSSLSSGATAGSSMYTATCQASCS

Q: How did the EC50, CRE-luciferase reporter in HEK293 cells (GLP-1 receptor) turn out when “palivizumab(NL, EAAAK)-glucagon(2S) and pPalivizumab(NH, GGGGS1)-exendin-4” was run?
A: 0.013 nM

Q: What about the EC50, CRE-luciferase reporter in HEK293 cells (glucagon receptor) of the same substance?
A: 0.033 nM

From patent US20170327577A1, “METHODS OF CONSTRUCTING AMINO TERMINAL IMMUNOGLOBULIN FUSION PROTEINS AND COMPOSITIONS THEREOF” (The California Institute for Biomedical Research, priority 2014, published 2017)
